Laboratory results reported in PubChem BioAssay AID588692 (Broad Institute, 2011).
This is a selection; strong and weak results do not stand in their true shares. Active and inactive are the calls of the source.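 Rule for the calls: active = mean luciferase reporter signal, scaled so untreated is 0 and the glycosylation-blocking control 100, at or above a set limit in every replicate; inconclusive = mean reaches the limit but not every replicate does; inactive = mean below the limit.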

Test: increase of ERlucT glycosylation luciferase signal, primary screen, N-linked glycosylation inhibitor project, D54 ERlucT cells, luminescence, set 2 (AID 588692);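 note: luciferase carries N-glycosylation sites so blocking glycosylation raises the light; 0% = median of neutral control wells and 100% = median of 100 nM tunicamycin wells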
Settings: 24 h, at 12.5 µM, stronger effect = higher value, percent of 100 nM tunicamycin response

| Structure (SMILES) | reporter increase |
| --- | --- |
| O=C(NCC1(N2CCCCC2)CCCCC1)c1ccc(OC(F)F)cc1 | inactive: -7.72% |
| CC(C)(C)n1nnnc1C(c1ccccc1OC(F)(F)F)N1CCC(n2c(=O)[nH]c3ccccc32)CC1 (centres undefined) | inactive: -3.29% |
| O=C(NCC1(N2CCCCC2)CCCCC1)c1cccc([N+](=O)[O-])c1 | inactive: -7.68% |
| CSc1ccc(C(=O)NCC2(N3CCOCC3)CCCCC2)cc1 | inactive: -5.54% |
| N#CC1(Nc2ccccc2)CCN(CCc2ccccc2)CC1 | inactive: 0.235% |
| O=c1[nH]c2ccccc2n1C1CCN(C(c2ccccc2OC(F)(F)F)c2nnnn2C2CCCC2)CC1 (centres undefined) | inactive: -4.81% |
| CCN1CCC(Nc2ccc(Cl)cc2)CC1 | inactive: 0.439% |
| O=C(NCC1(N2CCCCC2)CCCCC1)c1cccc(C(F)(F)F)c1 | inactive: -5.09% |
| CCCCn1nnnc1C(c1cccc2ccccc12)N1CCC(n2c(=O)[nH]c3ccccc32)CC1 (centres undefined) | inactive: -7.06% |
| COc1ccc(NC2CCN(C(=O)OC(C)(C)C)CC2)cc1 | inactive: 0.181% |
| CC(C)c1ccc(C(=O)NCC2(N3CCOCC3)CCCCC2)cc1 | inactive: -7.23% |
| CN1CCN(CCOC(=O)C(O)(c2ccccc2)c2ccccc2)CC1 | inactive: 1.81% |
| O=C(NCC1(N2CCOCC2)CCCCC1)c1cc(=O)[nH]c2ccccc12 | inactive: -1.08% |
| COc1cc(C(=O)NCC2(N3CCCCC3)CCCCC2)ccc1OC(F)F | inactive: -7.34% |
| CN(C)c1cccc(C(=O)NCC2(N3CCCCC3)CCCCC2)c1 | inactive: -6.63% |
| COc1ccc(CN(CCCl)CCCl)cc1Cl | inactive: 1.61% |
| CCCCn1nnnc1C(c1ccccc1OC(F)(F)F)N1CCC(n2c(=O)[nH]c3ccccc32)CC1 (centres undefined) | inactive: -2.07% |
| CC(C)c1ccc(NC2CCN(C(=O)OC(C)(C)C)CC2)cc1 | inactive: -3.99% |
| CCCCn1nnnc1C(c1ccnc2ccccc12)N1CCC(n2c(=O)[nH]c3ccccc32)CC1 (centres undefined) | inactive: -6.68% |
| CCC(c1nnnn1C(C)(C)C)N1CCC(n2c(=O)[nH]c3ccccc32)CC1 (centres undefined) | inactive: 1.36% |

| Structure (SMILES) | reporter increase |
| --- | --- |
| O=C(NCC1(N2CCOCC2)CCCCC1)c1cc(F)c(F)cc1Cl | inactive: -1.2% |
| COc1cc(OC)c(C(=O)NCC2(N(C)C)CCCCC2)cc1OC | inactive: 0.722% |
| O=C(NCC1(N2CCCCC2)CCCCC1)c1cncc(Br)c1 | inactive: -4.21% |
| CN1CCC(Nc2cccc(F)c2)CC1 | inactive: 0.125% |
| CCCOc1ccc(C(=O)NCC2(N(C)C)CCCCC2)cc1OC | inactive: -2.8% |
| Cc1ccc(C(=O)NCC2(N(C)C)CCCCC2)o1 | inactive: 0.0955% |
| COc1ccc(C(c2nnnn2C2CCCC2)N2CCC(n3c(=O)[nH]c4ccccc43)CC2)cc1 (centres undefined) | inactive: -3.19% |
| CCCCn1nnnc1C(c1cccs1)N1CCC(n2c(=O)[nH]c3ccccc32)CC1 (centres undefined) | inactive: -2.34% |
| CCCCn1nnnc1C(CC)N1CCC(n2c(=O)[nH]c3ccccc32)CC1 (centres undefined) | inactive: 3.84% |
| O=C(NCC1(N2CCCCC2)CCCCC1)c1cccs1 | inactive: -5.28% |
| O=C(NCC1(N2CCCCC2)CCCCC1)c1ccc(=O)[nH]c1 | inactive: -3.45% |
| CCC(c1nnnn1C1CCCC1)N1CCC(n2c(=O)[nH]c3ccccc32)CC1 (centres undefined) | inactive: -0.241% |
| COc1ccc(C(=O)NCC2(N3CCCCC3)CCCCC2)c(OC)c1OC | inactive: -3.54% |
| CC(C)(C)OC(=O)N1CCC(N(C(=O)c2ccccc2)c2ccc(F)cc2)CC1 | inactive: -2.15% |
| COc1ccc(C(=O)NCC2(N3CCCCC3)CCCCC2)cc1 | inactive: -4.05% |
| Cc1cccc(NC2(C#N)CCN(Cc3ccccc3)CC2)c1 | inactive: 1.26% |
| CSc1ccccc1C(=O)NCC1(N2CCCCC2)CCCCC1 | inactive: -4.28% |
| O=C(NCC1(N2CCOCC2)CCCCC1)c1cc2ccccc2o1 | inactive: -4.11% |
| Cc1cc(C)cc(N(C(=O)c2ccccc2)C2CCN(C(=O)OC(C)(C)C)CC2)c1 | inactive: -2.39% |
| O=c1[nH]c2ccccc2n1C1CCN(C(c2ccccc2OC(F)(F)F)c2nnnn2C2CCCCC2)CC1 (centres undefined) | inactive: -2.8% |

| Structure (SMILES) | reporter increase |
| --- | --- |
| O=C(NCC1(N2CCCCC2)CCCCC1)c1ccc(Cl)nc1 | inactive: -6.21% |
| CCCCn1nnnc1C(c1ccc(OC)cc1)N1CCC(n2c(=O)[nH]c3ccccc32)CC1 (centres undefined) | inactive: 0.307% |
| CCOC(=O)N1CCC(Nc2ccc(OC)cc2)CC1 | inactive: -0.66% |
| COc1ccc(Cl)cc1C(=O)NCC1(N2CCOCC2)CCCCC1 | inactive: -0.96% |
| O=c1[nH]c2ccccc2n1C1CCN(C(c2cc3ccccc3o2)c2nnnn2C2CCCCC2)CC1 (centres undefined) | inactive: -1.67% |
| O=C(OC1CN2CCC1CC2)C1c2ccccc2Oc2ccccc21 (centres undefined) | inactive: 0.996% |
| O=C(NCC1(N2CCCCC2)CCCCC1)c1ccc(Cl)s1 | inactive: -5.26% |
| N#CC1(Nc2ccccc2)CCN(Cc2ccccc2)CC1 | inactive: -1.31% |
| CCOc1ccc(C)cc1CN(CCCl)CCCl | inactive: -0.171% |
| O=C1CCN(Cc2ccccc2)CC1 | inactive: 1.17% |
| CC(C)(C)n1nnnc1C(c1ccccc1)N1CCC(n2c(=O)[nH]c3ccccc32)CC1 (centres undefined) | inactive: -1.64% |
| CCOC(=O)N1CCC(Nc2ccc(F)cc2)CC1 | inactive: 0.786% |
| COc1ccc(NC2CCN(CCc3ccccc3)CC2)c(OC)c1 | inactive: 1.82% |
| O=C(NCC1(N2CCCCC2)CCCCC1)c1ccc(F)cc1 | inactive: -5.21% |
| CCCCOc1ccc(C(=O)NCC2(N3CCOCC3)CCCCC2)cc1 | inactive: -8.51% |
| CCCCn1nnnc1C(c1cc2ccccc2o1)N1CCC(n2c(=O)[nH]c3ccccc32)CC1 (centres undefined) | inactive: -6.62% |
| O=P1(N(CCCl)CCCl)SCCCS1 | inactive: 0.19% |
| O=c1[nH]c2ccccc2n1C1CCN(C(c2ccccc2)c2nnnn2C2CCCCC2)CC1 (centres undefined) | inactive: -3.83% |
| O=c1[nH]c2ccccc2n1C1CCN(C(c2cccc3ccccc23)c2nnnn2C2CCCC2)CC1 (centres undefined) | inactive: -10.4% |
